# Measured affinities in a library of Ab-14 light chain variants

The measurements come from Engelhart et al. 2022 (doi:10.1038/s41597-022-01779-4) through the FLAb antibody collection.

Target: peptide PDVDLGDISGINAS, taken from heptad repeat 2 (HR2) of SARS-CoV-2 spike.

The variants keep the heavy chain, the linker and the frameworks of Ab-14 (scFv order VH, a (GGGGS)3 linker, VL).
VH: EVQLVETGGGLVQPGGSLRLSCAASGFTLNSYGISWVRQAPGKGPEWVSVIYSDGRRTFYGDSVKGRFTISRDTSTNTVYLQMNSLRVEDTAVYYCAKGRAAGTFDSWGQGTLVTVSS
VL: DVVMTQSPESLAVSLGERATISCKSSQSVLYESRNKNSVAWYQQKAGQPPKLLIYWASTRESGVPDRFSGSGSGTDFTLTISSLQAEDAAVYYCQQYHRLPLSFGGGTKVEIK

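The parent was found by panning a naive human phage display library on the peptide. AAYL50 was designed without a model: most single CDR substitutions and a random sample of double and triple ones. The scFvs were displayed on barcoded MATa yeast, the peptide on MATalpha yeast. After mating in shaken culture at 30 °C for 16 h, diploids were selected and their barcode pairs sequenced. Scores were corrected for input abundance and mapped to Kd with protein pairs of known affinity run in the same pool. The assay was run in three technical replicates.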

Each variant is given by its three light chain CDRs, as the data file delimits them; those of the parent are KSSQSVLYESRNKNSVA, WASTRES, QQYHRLPLS.
Each Kd is an estimate from the mating assay, the geometric mean of the replicates in which the pair was seen; lower is stronger.
An entry "nd" has no value in the source: the pair was not observed among the diploids in any replicate. This suggests poor binding but is not conclusive.
Parent in this assay: reference entry 4.4 nM, copy in this library 48 nM.
Empty control strains, which show no peptide, gave a signal in 18% of pairings with library AAYL50; the median was 15 µM and 95% of these signals were weaker than 970 nM. No background was subtracted. The control count says in how many pairings with the empty strains this scFv gave a signal.

With RSSQSVLYESRNKNSVA / WASTREK / QQYHRLGLS the result was 280 nM (3 of 3 replicates; controls 4 of 9).
With KSSQSVLYESRNKNSVA / WASVRES / QQYHRLDLI the result was nd (0 of 3 replicates; controls 0 of 9).
With KSMQSVLYHSRNKNSVA / WASTRES / QQYHRKPLS the result was 210 nM (3 of 3 replicates; controls 4 of 9).
With ESSWSVLYESRNKNSVA / WASTRES / QQYHRVPLS the result was nd (0 of 3 replicates; controls 1 of 9).
With KSSQSVLYESRNKQSHT / WASTRES / QQYHRLPLS the result was 1.8 µM (1 of 3 replicates; controls 3 of 9).
With KSSQSVLYESRNKNSVA / WALTRES / QQYDRLPLS the result was 680 nM (3 of 3 replicates; controls 0 of 9).
With KSAQYVLAESRNKNSVA / WASTRES / QQYHRLPLS the result was nd (0 of 3 replicates; controls 0 of 9).
With KSSQSQLYESMNKNSVA / WATTRES / QQYHRLPLS the result was 1.8 nM (3 of 3 replicates; controls 2 of 9).
With WSSLSVLYESRNKKSVA / WASTRES / QQYHRLPLS the result was nd (0 of 3 replicates; controls 0 of 9).
With KSSQSVLYESRNKNSVA / WAETRES / QQYGRLPES the result was nd (0 of 3 replicates; controls 1 of 9).
With KSSQSKLYESRNSNSVA / WASTRES / QQIHRLPLS the result was 360 µM (3 of 3 replicates; controls 3 of 9).
With KSSHSYLYESRNKNNVA / WASTRES / QQYHRLPLS the result was 3.0 nM (3 of 3 replicates; controls 1 of 9).
With KSSQSNLYMSRNKNSVA / WAMTRES / QQYHRLPLS the result was 2.7 µM (3 of 3 replicates; controls 2 of 9).
With KSSQSVLYESRNKNSVA / WASWRAC / QQYHRLPLS the result was 58 nM (3 of 3 replicates; controls 0 of 9).
With KSSQSVLYESRNKNSVA / WPSTRES / CQYVRLPLS the result was nd (0 of 3 replicates; controls 2 of 9).
With KSSQSVLYESRNKNSVA / WASTRTS / QQYHRLRLI the result was 3.4 µM (2 of 3 replicates; controls 1 of 9).

The remaining entries, values ahead:

53 µM (3 of 3 replicates; controls 4 of 9) for KSSQSVLYESRNKNIVA / WASTRES / PQYHRLPWS.
18 µM (2 of 3 replicates; controls 5 of 9) for KSSQSVLYYSRNKNSVA / WACTRES / QVYHRLPLS.
490 µM (2 of 3 replicates; controls 8 of 9) for KSSQSVLEESRNKNSVY / WASTRES / DQYHRLPLS.
410 nM (1 of 3 replicates; controls 1 of 9) for KSSQSVLRESTNKNSVA / WTSTRES / QQYHRLPLS.
200 µM (2 of 3 replicates; controls 1 of 9) for KSSQSVLEESRNKNSYA / WASTRES / QQYHRLDLS.
5.2 nM (3 of 3 replicates; controls 1 of 9) for KSSQSVLYESMNKNSVA / WASTREM / QQYHRLPLS.
13 µM (3 of 3 replicates; controls 4 of 9) for KSSQSVPYESRNKNSVA / WASTRES / QQAHRDPLS.
4.1 nM (3 of 3 replicates; controls 4 of 9) for KSSQSVEYESRNHNSVA / WASTRES / QQYHRLPLE.
nd (0 of 3 replicates; controls 1 of 9) for KSSQQVLYESRNKNSMA / WASQRES / QQYHRLPLS.
3.2 nM (3 of 3 replicates; controls 0 of 9) for KHSQSVLYESRNKNSVA / WASTRES / FFYHRLPLS.
26 nM (3 of 3 replicates; controls 2 of 9) for KSSVKVLYESRNKNSVA / WASTRES / QQYHRLPLS.
nd (0 of 3 replicates; controls 4 of 9) for KSGQSVLYESRNKRSVA / WASTRES / QQYHRLTLS.
210 nM (3 of 3 replicates; controls 0 of 9) for KSSQSVLYESKNKNSVA / WASTRES / QQYHQLPLK.
180 nM (3 of 3 replicates; controls 1 of 9) for KTSQSVLYESRNKNSVA / WASTRES / QQYHRLPLK.
570 nM (1 of 3 replicates; controls 0 of 9) for KSSQSVLYEKRNKNSVA / WLSTNES / QQYHRLPLS.
2.9 µM (1 of 3 replicates; controls 1 of 9) for KSSQSVLYSSRNKNSVY / WASTRES / QQYHRLPLS.

2 of these entries, quoted again:

CDR-L1,CDR-L2,CDR-L3,Kd,seen in,signal with controls
KTSQSVLYESRNKNSVA,WASTRES,QQYHRLPLK,180 nM,3/3,1/9
KSAQYVLAESRNKNSVA,WASTRES,QQYHRLPLS,nd,0/3,0/9